The numbers were not newly measured in patent publication US10167258B2, “Inhibitors of mitochondrial pyruvate dehydrogenase kinase isoforms 1-4 and uses thereof” (The Board of Regents of the University of Texas System, priority 2013, dated 2019), which cites them from elsewhere.

This data set concerns Hsp90. Conditions: read-out: IC50 for Hsp90; literature value; cited from earlier work.

Take `Oc1ccc(-c2n[nH]c(=S)n2-c2cccc3ccccc23)c(O)c1`: the IC50 was 300 nM.

A word on the IC50: it is the concentration needed to halve the response being measured.
